# Laboratory results: US7763605B2, “[1,4]benzodiazepines as vasopressin V2 receptor antagonists” (Janssen Pharmaceutica, N.V., priority 2004, dated 2010)
# How the values were obtained:
# [1] = biological target: T1, human V2 receptor (Homo sapiens, UniProt P30518); assay: Inhibition of AVP-induced cAMP accumulation in transfected HEK-293 cells expressing human V2 receptor; assay type: cell-based; conditions: AVP 1 nM, HEK-293 expressing human V2, read-out: Functional V2 (IC50; μM)
# T1 construct: expressed in transfected cells; host or cells: HEK-293
# Protocol: HEK-293 cells were grown in DMEM media supplemented with 10% FBS and glutamine (Gibco BRL, Grand Island, N.Y.). Once transfected, the cells were passed biweekly by trypsinization and seeded into 96 well plates at 33,000 cells per well. HEK-293 were transfected with human V1a, V1b or V2 DNA using DMRIE-C reagent from Life Technologies, Inc., Grand Island, N.Y. Cells were tested for their responsiveness to vasopressin 48 h after transfection. Stable lines were generated by selecting cells grown in culture media containing geneticin (500 μg/mL, Life Technologies).
# The accumulation of cAMP was measured in transfected HEK-293 expressing the human V2 receptor. The cells were cultured 4-7 d in 96-well plates. On the day of testing in this assay, cells were washed twice in assay media (DMEM/F12 containing 0.1% BSA). […] The cAMP content of 20 μL of the cell lysate in each well was measured using cAMP Flashplates (NEN Life Sciences). Data are expressed as pmol cAMP/well. While the assay is optimized to detect and quantitate antagonistic activity, agonistic activity would also be apparent at the higher concentrations of test compounds.
# The data from the cAMP accumulation and the calcium mobilization assays are expressed as IC50 values as determined from dose response curves.
# [2] = biological target: T1, human V2 receptor; assay: In vitro recombinant vasopressin receptor binding assay (3H-arginine vasopressin displacement), V2; conditions: cloned human receptor membranes from HEK-293 cells
# Protocol: Compounds were assessed for their ability to displace ^3H-arginine vasopressin from the human V-1 or V-2 receptor in HEK-293 cells. Assay buffer is 50 mM Tris-Cl, 5 mM MgCl2, 0.1% BSA (pH 7.5) containing 5 ug/ml of aprotinin, leupeptin, pepstatin, 50 ug/ml bacitracin, and 1 mM Pefabloc. ^3H-vasopressin is ^3H-arginine-8-vasopressin (68.5 Ci/mmol, final concentration in assay is 0.65-0.75 nM). Into wells of 96-well round bottom polypropylene plates were added buffer, test compound, membrane (containing cloned human V-1 or V-2 receptor), and ^3H-vasopressin. The reaction plates were allowed to sit at room temperature for one hour. The samples were filtered through Unifilter GF/C plates (presoaked in 0.3 polyethyleneimine). The plates were washed 5 times with cold physiological saline containing 0.05% Tween 20. After drying, the bottom of the filter plates were sealed and 0.025 ml of Microscint-20 was added to each filter. The top of the plate was sealed, and the plate was counted. Non-specific binding was determined by the addition of 1.25 uM arginine-8-vasopressin in those wells.
substance,measurement,setting,value
"(S)-Biphenyl-2-carboxylic acid [3-chloro-4-(4-methyl-3-morpholino-4-ylmethyl-2,3,4,5-tetrahydrobenzo[e][1,4]diazepine-1-carbonyl)-phenyl]-amide ditrifluoroacetate [Cpd 5]",IC50,[1],0.775 µM
same,IC50,[2],0.16 µM
